# Earlier results, collected in patent US12678402B2, “Treatment with powdered intranasal epinephrine” (Nasus Pharma Ltd., priority 2020, dated 2026).
# Read-outs that look alike come from different tables or passages of the source.
smiles,measurement,setting,value
CNC[C@H](O)c1ccc(O)c(O)c1 [Epinephrine],AUC0-120 min,"0.3 mg IM, listed as Epinephrine 0.3 mg IM",18.3 ± 9.3 ng·min/mL
same,Cmax Mean (±SD),5 mg IN,0.386 ± 0.152 ng/mL
same,AUC0-120 min,"5 mg IN, listed as intranasal epinephrine",18.3 ng·min/mL
